{
  "source": "patent US20120308614A1",
  "about": "“COMPOSITION FOR THE CONTROLLED RELEASE OF BUPRENORPHINE” (Flamel Technologies, priority 2011, published 2012)",
  "key": {"[1]": {"settings": "PBS buffer, pH 7, clearness observed by eye"}, "[2]": {"settings": "24 hours stirring at room temperature"}, "[3]": {"settings": "pH 7; from AAPS PharmSciTech 2007; 8 (3) Article 62; cited from earlier work"}},
  "note": "Read-outs that look alike come from different tables or passages of the source.",
  "data": [
    {"substance": "buprenorphine 6-enanthate [BuC7]", "values": [
      {"measurement": "Amount of solubilized prodrug", "setting": "[1]", "result": "<0.6", "unit": "mg/mL"}
    ]},
    {"substance": "buprenorphine 6-isobutyrate [BuC4]", "values": [
      {"measurement": "Amount of solubilized prodrug", "setting": "[1]", "result": "<0.8", "unit": "mg/mL"}
    ]},
    {"substance": "buprenorphine 6-myristate [BuC14]", "values": [
      {"measurement": "amount of prodrug solubilized in the polymer solution", "setting": "[2]; sodium polyacrylate grafted at 6 mol % alpha-tocopherol via alanine spacer, 32.4 mg/mL, visual control", "result": 0.4, "unit": "mg/mL"},
      {"measurement": "amount of prodrug solubilized in water", "setting": "[2]; water", "result": "less than 0.2 mg/mL"}
    ]},
    {"substance": "buprenorphine hydrochloride [BuHCl]", "values": [
      {"measurement": "Amount of solubilized prodrug", "setting": "[3]", "result": 17, "unit": "mg/mL"}
    ]}
  ]
}
